For one compound, Ki and IC50 results are on record in ChEMBL document CHEMBL4270567, “Multi-target-directed ligands for treating Alzheimer's disease: Butyrylcholinesterase inhibitors displaying antioxidant and neuroprotective activities” (Eur J Med Chem, 2018).

Sequences of proteins named here, by UniProt entry; tags and fusion partners are left off.
UniProt P06276, whole entry: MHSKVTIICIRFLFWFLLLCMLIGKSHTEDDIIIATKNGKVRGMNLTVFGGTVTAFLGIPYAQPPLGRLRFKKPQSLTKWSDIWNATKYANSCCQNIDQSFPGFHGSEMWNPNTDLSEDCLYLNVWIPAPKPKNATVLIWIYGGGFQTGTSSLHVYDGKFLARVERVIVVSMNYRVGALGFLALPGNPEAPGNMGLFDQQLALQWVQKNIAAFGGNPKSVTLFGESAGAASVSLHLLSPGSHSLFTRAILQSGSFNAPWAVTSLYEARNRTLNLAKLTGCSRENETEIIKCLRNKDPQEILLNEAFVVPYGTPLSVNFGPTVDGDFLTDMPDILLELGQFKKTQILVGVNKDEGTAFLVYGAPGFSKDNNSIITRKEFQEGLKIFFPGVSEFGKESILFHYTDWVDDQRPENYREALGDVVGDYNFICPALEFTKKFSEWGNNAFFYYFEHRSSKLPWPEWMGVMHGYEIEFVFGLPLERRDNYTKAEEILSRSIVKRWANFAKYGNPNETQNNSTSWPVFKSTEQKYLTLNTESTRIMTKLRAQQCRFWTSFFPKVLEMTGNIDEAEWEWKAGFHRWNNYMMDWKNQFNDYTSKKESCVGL

The target of experiment [1] is T1, Cholinesterase (Homo sapiens, UniProt P06276). Briefly: Competitive inhibition of human BChE using butyrylthiocholine iodide as substrate preincubated for 5 mins followed by substrate addition and measured for 1 min by Lineweaver Burk plot analysis.
For experiment [2], the target named is T1, Cholinesterase.

In general, Ki refers to the dissociation constant of the complex between target and ligand, obtained from inhibition or displacement. As usually defined, the IC50 is the point on the concentration scale where inhibition reaches its midpoint. High values mean lower potency, low ones higher potency.

`CN(C)CCN(CC1CCCN(C2Cc3ccccc3C2)C1)C(=O)c1ccc2cccnc2c1O` (racemic) had a Ki at Cholinesterase [1] of 1.71 nM. The IC50 against Cholinesterase [2] worked out at 13.8 nM.
